Test results published in patent US10072026B2, “Crystalline form of 3-((1R,3s,5S)-3-((7-((5-methyl-1H-pyrazol-3-yl)amino)-1,6-naphthyridin-5-yl)amino)-8-azabicyclo[3.2.1]octan-8-yl)propanenitrile” (priority 2015, dated 2018).

Columns and labels:
JAK3 = JAK3 (Homo sapiens (Human), UniProt P52333); experiment: LanthaScreen JAK biochemical assay (JAK3)
[1] = system: IL-4 induced STAT6 phosphorylation in THP-1 human monocytic cells; experiment: Cellular JAK potency assay, THP-1; conditions: THP-1, read-out: THP-1 IL4 pIC50 (converted)
[2] = system: IL-13 induced STAT6 phosphorylation in BEAS-2B human lung epithelial cells; experiment: AlphaScreen cellular JAK potency assay, BEAS-2B; conditions: read-out: BEAS2B pIC50 (converted)

SMILES | JAK 3 (pKi) (JAK3) | Ki (JAK3) [nM] | IC50 [1] [nM] | IC50 [2] [nM]
COC(=O)CN1[C@@H]2CC[C@H]1C[C@H](Nc1nc(Nc3cc(C)[nH]n3)cc3ncccc13)C2 [Example 1-1] | C (C represents a pKi value between 7 and 9 (Ki between 100 nM and 1 nM)) | – | – | –
Cc1cc(Nc2cc3ncccc3c(N[C@@H]3C[C@H]4CC[C@@H](C3)N4C3CCOC3=O)n2)n[nH]1 (stereo partly shown) [Example 1-26] | – | 1 to 100 | – | –
Cc1cc(Nc2cc3ncccc3c(N[C@@H]3C[C@H]4CC[C@@H](C3)N4S(=O)(=O)C3CNC3)n2)n[nH]1 [Example 4-9] | – | 1 to 100 | – | –
Cc1cc(Nc2cc3ncccc3c(N[C@@H]3C[C@H]4CC[C@@H](C3)N4C(=O)C(F)F)n2)n[nH]1 [Example 5, 2,2-difluoro-1-((1R,3s,5S)-3-((7-((5-methyl-1H-pyrazol-3-yl)amino)-1,6-naphthyridin-5-yl)amino)-8-azabicyclo[3.2.1]octan-8-yl)ethan-1-one] | – | – | < 31.6 | < 31.6
CCS(=O)(=O)N1[C@@H]2CC[C@H]1C[C@H](Nc1nc(Nc3cc(C)[nH]n3)cc3nc(CO)ccc13)C2 [Example 5-13] | – | – | 31.6 to 200 | –
CCC1(S(=O)(=O)N2[C@@H]3CC[C@H]2C[C@H](Nc2nc(Nc4cc(C)[nH]n4)cc4nc(CN5CCN(C)CC5)ccc24)C3)CC1 [Example 5-36] | – | – | < 31.6 | < 31.6
COCCS(=O)(=O)N1[C@@H]2CC[C@H]1C[C@H](Nc1nc(Nc3cc(C)[nH]n3)cc3ncccc13)C2 [Example 6, N^5-((1R,3s,5S)-8-((2-methoxyethyl)sulfonyl)-8-azabicyclo[3.2.1]octan-3-yl)-N^7-(5-methyl-1H-pyrazol-3-yl)-1,6-naphthyridine-5,7-diamine] | – | – | 31.6 to 200 | 31.6 to 200
COC(=O)c1cnc2cc(Nc3cc(C)[nH]n3)nc(N[C@@H]3C[C@H]4CC[C@@H](C3)N4C(=O)C(F)F)c2c1 [Example 6-37] | – | – | 31.6 to 200 | –
COc1ccnc2cc(Nc3cc(C)[nH]n3)nc(N[C@@H]3C[C@H]4CC[C@@H](C3)N4C3(CC#N)COC3)c12 [Example 7-10] | – | – | < 31.6 | 31.6 to 200
